In BindingDB's records for doi:10.1038/sj.bjp.0702293 (Monash University, 1999) one finds Ki data, which are given here for two compounds.

Chains of the proteins cited; added tags and fusions are not shown.
UniProt P32305, whole entry: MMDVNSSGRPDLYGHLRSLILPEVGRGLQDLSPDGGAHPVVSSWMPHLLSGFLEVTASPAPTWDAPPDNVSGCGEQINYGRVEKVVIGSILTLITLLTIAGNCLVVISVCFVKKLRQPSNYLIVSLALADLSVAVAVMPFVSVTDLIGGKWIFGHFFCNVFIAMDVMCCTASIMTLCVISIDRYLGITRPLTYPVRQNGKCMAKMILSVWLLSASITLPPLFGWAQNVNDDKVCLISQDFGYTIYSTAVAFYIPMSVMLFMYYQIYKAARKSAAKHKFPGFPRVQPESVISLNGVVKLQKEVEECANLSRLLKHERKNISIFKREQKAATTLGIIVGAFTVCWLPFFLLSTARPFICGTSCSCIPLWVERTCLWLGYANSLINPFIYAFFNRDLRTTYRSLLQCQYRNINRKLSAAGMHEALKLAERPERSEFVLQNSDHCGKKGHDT

The assay has as its target 5-hydroxytryptamine receptor 7 (Rattus norvegicus, UniProt P32305).

With `COc1ccc2[nH]cc(CCN)c2c1` [tryptamine, 5-Methoxy], the Ki (usually a measure of affinity in units of concentration, obtained from inhibition or displacement) was found to be 0.63 nM. The value for `CCN(CC)C(=O)[C@@H]1C=C2c3cccc4[nH]cc(c34)C[C@H]2N(C)C1` [(4R,7R)-N,N-diethyl-6-methyl-6,11-diazatetracyclo[7.6.1.0^{2,7}.0^{12,16}]hexadeca-1(16),2,9,12,14-pentaene-4-carboxamide] was 7.94 nM.
